Assay results published in US9884860B2, “Fused pyrroledicarboxamides and their use as pharmaceuticals” (SANOFI, priority 2012, dated 2018).

The chains behind the UniProt entries cited, without tags or fusion partners. Where a name states a change or a piece, a line headed by the entry shows the natural chain unless it says otherwise.
UniProt O14649: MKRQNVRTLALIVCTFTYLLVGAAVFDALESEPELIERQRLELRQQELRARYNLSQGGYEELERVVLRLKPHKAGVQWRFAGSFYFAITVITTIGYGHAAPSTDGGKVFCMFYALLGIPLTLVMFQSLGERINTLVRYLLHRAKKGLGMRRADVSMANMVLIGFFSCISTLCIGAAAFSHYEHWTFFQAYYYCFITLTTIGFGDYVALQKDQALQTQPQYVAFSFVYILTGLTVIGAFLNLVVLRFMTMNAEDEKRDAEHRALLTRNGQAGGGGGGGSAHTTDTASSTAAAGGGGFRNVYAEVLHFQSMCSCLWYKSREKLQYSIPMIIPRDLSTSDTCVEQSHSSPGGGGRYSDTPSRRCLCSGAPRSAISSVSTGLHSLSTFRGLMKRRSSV

Biological target: Human TASK-1 channels (Homo sapiens (Human), UniProt O14649)
Assay: Determination of the activity on the TASK-1 channel in Xenopus oocytes (two-microelectrode voltage clamp)
Type: cell-based
Settings: human TASK-1 expressed in Xenopus oocytes, room temperature; read-out: IC50 value for TASK-1 inhibition
Procedure: Determination of the activity on the TASK-1 channel in Xenopus oocytes
Human TASK-1 channels were expressed in Xenopus oocytes. For this purpose, oocytes were isolated from Xenopus laevis and defoliculated. Subsequently, TASK-1-encoding RNA synthesized in vitro was injected into the oocytes. After two days of TASK-1 protein expression, TASK-1 currents were measured by two-microelectrode voltage clamp. Data were acquired and analyzed using a TEC-10cx amplifier (NPI Electronic, Tamm, Germany) connected to an ITC-16 interface (Instrutech Corp., Long island, USA) and Pulse software (HEKA Elektronik, Lambrecht, Germany). Oocytes were clamped to −90 mV and TASK-1 mediated currents were measured during 500 ms voltage pulses to 40 mV. Oocytes were continuously superfused with ND96 buffer containing 98 mM sodium chloride, 2 mM potassium chloride, 1.8 mM calcium chloride, 1 mM magnesium chloride, 5 mM 4-(2-hydroxyethyl)-piperazine-1-ethanesulfonic acid (HEPES: pH adjusted to 7.4 with sodium hydroxide). All experiments were performed at room temperature. Test compounds were consecutively added to the bath solution at rising concentrations. Compound effects were calculated as the percentage inhibition of TASK-1 control current before compound addition. IC50 values were obtained by fitting the data to the general dose-response equation.

## 3,4-Dihydro-1H-pyrrolo[2,1-c][1,4]thiazine-6,8-dicarboxylic acid 8-{[(R)- 1-(4-fluoro-phenyl)-ethyl]-amide} 6-[((R)-1-phenyl-propyl)-amide] [16kq]
  pIC50: 7.34

pIC50: −log10 of the molar value.
